According to patent publication US20220267281A1, “UNSATURATED HETEROCYCLOALKYL AND HETEROAROMATIC ACYL HYDRAZONE LINKERS, METHODS AND USES THEREOF” (priority 2019, published 2022):

Tested on: SKOV3 ovarian cells
Assay: Cytotoxicity of ADCs against SKOV3 cell lines (viable cells by ATP content, CellTiter-Glo)
Format: cell-based
Conditions: SKOV3 ovarian cancer cells, 3 to 5 days incubation with ADC, % survival curve fit
Experimental: The cytotoxic activity of Trastuzumab ADCs of Formula (IV) was tested against SKOV3 ovarian cell lines
SKOV3 ovarian cells were incubated with the effectors for a period corresponding to 2 to 3 times their estimated doubling time and the amount of viable cells was determine by measuring ATP content in the wells. ATP has been widely accepted as a valid marker of viable cells. When cells lose membrane integrity, they lose the ability to synthesize ATP and endogenous ATPases rapidly deplete any remaining ATP from the cytoplasm. All ADCs were diluted in DPBS to 6× the highest concentration tested, followed by 10 3-fold serial dilutions in DPBS for a total of 11 concentration points. Each point was added to triplicate wells. DPBS was added in wells to measure the maximum growth. […] Total ATP was measured using CellTiter-Glo™ reagent from Promega as recommended by the supplier. […] Signal output was measured on a luminescence plate reader (Envision™, Perkin Elmer) set at an integration time of 0.1 sec. […]
Each concentration point (S) was normalized to the negative control wells (NC) and expressed as % survival (NC-S/NC×100). Potency (IC50) and efficacy were calculated from a non-linear curve fit of the points versus log of the concentrations without constrain on the slope. Refined data were analysed using Prism™ software. […]

Trastuzumab-SMCC-DM1 was tested, and the IC50 was 0.587 nM.
